## Measured affinities in a library of Ab-14 heavy chain variants

Reference: Engelhart et al. 2022, doi:10.1038/s41597-022-01779-4. File: FLAb, binding data.

Antigen: PDVDLGDISGINAS, a 14-residue peptide of the SARS-CoV-2 spike HR2 region.

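The starting antibody came from a phage panning campaign against this peptide. Library AAYL49 holds single substitutions and randomly drawn double and triple substitutions in the CDRs. The scFvs were displayed on barcoded MATa yeast, the peptide on MATalpha yeast. The frequency of each diploid, read from paired DNA barcodes, reflects how well the two displayed proteins bind. Each replicate has its own calibration line, from reference interactions of the BCL2 family. There are three technical replicates.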

Ab-14 is the parent antibody, in scFv form: VH, then a 15-residue (Gly4Ser)3 linker, then VL. The light chain is unchanged in all variants.
VH: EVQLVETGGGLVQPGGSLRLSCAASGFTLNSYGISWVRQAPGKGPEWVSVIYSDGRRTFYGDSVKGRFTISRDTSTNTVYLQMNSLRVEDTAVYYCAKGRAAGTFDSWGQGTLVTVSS
VL: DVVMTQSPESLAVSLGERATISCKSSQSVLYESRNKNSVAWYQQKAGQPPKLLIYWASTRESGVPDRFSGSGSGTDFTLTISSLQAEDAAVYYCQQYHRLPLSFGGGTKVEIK

Changes read parent residue, position, new residue, counted from the first residue of the VH shown. Values are log10 of the apparent Kd in nM; lower means stronger binding. Averages over replicates are reported, and they cover detected replicates only. "nd" marks a missing value. The strain was present, yet no cells mated with the target were sequenced in that replicate, which points to weak or no binding. Nonspecific signal, from three strains lacking the peptide, appeared in 15% of pairings of library AAYL49, centred on 4.06 (5% of these signals below 2.83); values are not corrected for it.

changes	log10 Kd (nM) by replicate	log10 Kd (nM), mean
S63K+G99M+F105K	nd / nd / 5.70	5.70
N30T+S53T+G55R	nd / nd / nd	nd
V50A+G61S+D106F	4.84 / nd / nd	4.84
N30I+Y60A+S107Q	6.18 / 4.85 / nd	5.51
F59S+Y60S+A101G	nd / 4.63 / 5.45	5.04
V50D+I51A+R56D	nd / nd / 5.70	5.70
G55V+R56W+Y60T	nd / nd / nd	nd
N30V+V64M+T104H	1.58 / 2.32 / 1.78	1.89
S63D+T104Y+S107R	3.22 / nd / 3.44	3.33
Y32S+I34D+S107C	nd / 3.68 / 5.16	4.42
R57Y+Y60S+D106E	nd / nd / 5.77	5.77
L29E+N30E+A102L	nd / nd / nd	nd
G33Q+I51V+S107E	nd / 5.12 / nd	5.12
S31L+G61M+D62M	nd / nd / 4.59	4.59
T28S+K65R	0.55 / 0.63 / 0.44	0.54
L29M+G61C	2.23 / 2.69 / 2.36	2.43
R56P+Y60N+R100K	nd / nd / nd	nd
I34F+A102L+S107V	nd / nd / nd	nd
S53R+V64A+D106C	nd / nd / nd	nd
T28G+R56S+F59D	nd / nd / 3.07	3.07
G26E+R100Y	2.16 / 1.58 / nd	1.87
T28P+S35V+G99P	4.87 / 4.49 / nd	4.68
T58R+V64P	nd / nd / nd	nd
G33M+T58H+A101D	nd / nd / nd	nd
D62Q+A102C	nd / nd / nd	nd
V50R+I51Q+R57E	nd / nd / 3.20	3.20
F27S+Y52H+T58K	4.44 / nd / nd	4.44
G26A+L29T+K65S	nd / nd / nd	nd
I51D+S53H+A102L	nd / nd / nd	nd
F27L+Y52N+S53E	nd / nd / nd	nd
Y32H+S53T+G99Y	nd / nd / nd	nd
G26M+G99V+F105R	1.75 / 1.60 / 1.95	1.76
G55W+D62F+R100D	nd / 3.37 / nd	3.37
L29K+D54M	3.80 / nd / nd	3.80
S35I+S63F+V64H	nd / 4.32 / 4.07	4.19
G103P+F105E	2.42 / 2.46 / 2.61	2.50
F27S+S63E+K65Q	2.11 / 2.17 / 2.39	2.22
I34N+D62P+A101S	nd / 3.75 / nd	3.75